Measured values as given in patent US20080269251A1, “Substituted Pyrazinone Derivatives as Alpha2C-Adrenoreceptor Antagonists” (priority 2005, published 2008).

Sequences of proteins named here, by UniProt entry; tags and fusion partners are left off.
UniProt P08913, whole entry: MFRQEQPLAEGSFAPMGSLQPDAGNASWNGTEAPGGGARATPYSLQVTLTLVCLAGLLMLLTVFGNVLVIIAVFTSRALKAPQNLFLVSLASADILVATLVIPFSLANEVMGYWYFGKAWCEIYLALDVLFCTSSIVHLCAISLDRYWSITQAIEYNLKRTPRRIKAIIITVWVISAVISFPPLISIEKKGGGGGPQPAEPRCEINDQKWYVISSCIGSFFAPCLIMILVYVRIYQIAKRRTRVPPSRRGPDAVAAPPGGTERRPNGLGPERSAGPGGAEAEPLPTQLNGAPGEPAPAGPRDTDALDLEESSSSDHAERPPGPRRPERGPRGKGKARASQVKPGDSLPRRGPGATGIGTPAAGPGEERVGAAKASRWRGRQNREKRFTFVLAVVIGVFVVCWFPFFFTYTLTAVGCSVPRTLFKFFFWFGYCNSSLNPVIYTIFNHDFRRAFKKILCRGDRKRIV
UniProt P18825, whole entry: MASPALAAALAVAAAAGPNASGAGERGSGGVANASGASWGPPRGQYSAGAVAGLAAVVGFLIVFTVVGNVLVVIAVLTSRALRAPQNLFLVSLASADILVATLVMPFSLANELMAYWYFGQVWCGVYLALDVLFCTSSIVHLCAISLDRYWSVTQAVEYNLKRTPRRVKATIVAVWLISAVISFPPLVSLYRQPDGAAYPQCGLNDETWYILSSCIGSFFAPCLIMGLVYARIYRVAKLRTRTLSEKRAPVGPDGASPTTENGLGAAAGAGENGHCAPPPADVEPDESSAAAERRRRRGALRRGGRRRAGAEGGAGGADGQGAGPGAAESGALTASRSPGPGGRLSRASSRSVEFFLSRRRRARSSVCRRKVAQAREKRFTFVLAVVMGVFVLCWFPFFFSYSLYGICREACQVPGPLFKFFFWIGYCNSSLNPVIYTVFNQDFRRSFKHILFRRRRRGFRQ
UniProt P31645, whole entry: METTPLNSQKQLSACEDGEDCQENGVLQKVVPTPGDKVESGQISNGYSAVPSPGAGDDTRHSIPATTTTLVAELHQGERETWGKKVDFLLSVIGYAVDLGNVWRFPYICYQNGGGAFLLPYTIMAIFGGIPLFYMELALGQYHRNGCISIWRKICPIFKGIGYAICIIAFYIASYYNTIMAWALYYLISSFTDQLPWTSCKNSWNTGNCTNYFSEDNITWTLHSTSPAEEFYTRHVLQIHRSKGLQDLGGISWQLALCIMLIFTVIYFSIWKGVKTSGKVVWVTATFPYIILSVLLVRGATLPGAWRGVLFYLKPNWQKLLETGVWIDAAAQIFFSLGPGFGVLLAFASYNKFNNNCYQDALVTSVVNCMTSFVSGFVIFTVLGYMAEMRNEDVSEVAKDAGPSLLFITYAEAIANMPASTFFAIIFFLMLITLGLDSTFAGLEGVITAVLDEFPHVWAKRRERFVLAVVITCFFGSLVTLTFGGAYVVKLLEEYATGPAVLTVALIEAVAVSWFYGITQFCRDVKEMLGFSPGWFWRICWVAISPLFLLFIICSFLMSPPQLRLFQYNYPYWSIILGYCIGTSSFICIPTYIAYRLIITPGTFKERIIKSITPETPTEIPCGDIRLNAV

Legend:
[1] = target: human adrenergic-α2A receptor (Homo sapiens, UniProt P08913); experiment: Radioligand binding experiment for hα2A-adrenergic receptor ([3H]raulwolscine); conditions: [3H]raulwolscine 1 nM, 60 minutes at 25° C.
Description: (§1) The interaction of the compounds of Formula (I) with α2C-adrenoceptor receptors was assessed in in vitro radioligand binding experiments. In general, a low concentration of a radioligand with a high binding affinity for a particular receptor or transporter is incubated with a sample of a tissue preparation enriched in a particular receptor or transporter or with a preparation of cells expressing cloned human receptors in a buffered medium. During the incubation, the radioligand binds to the receptor or transporter. When equilibrium of binding is reached, the receptor bound radioactivity is separated from the non-bound radioactivity, and the receptor- or transporter-bound activity is counted. The interaction of the test compounds with the receptor is assessed in competition binding experiments. Various concentrations of the test compound are added to the incubation mixture containing the receptor- or transporter preparation and the radioligand. The test compound in proportion to its binding affinity and its concentration inhibits binding of the radioligand. The radioligand used for […] receptor binding was [^3H]-raulwolscine.
(§2) CHO cells, stabile transfected with human adrenergic-α2A, -α2B or α2C receptor cDNA, were cultured in Dulbecco's Modified Eagle's Medium (DMEM)/Nutrient mixture Ham's F12 (ratio 1:1)(Gibco, Gent-Belgium) supplemented with 10% heat inactivated fetal calf serum (Life Technologies, Merelbeke-Belgium) and antibiotics (100 IU/ml penicillin G, 100 μg/ml streptomycin sulphate, 110 μg/ml pyruvic acid and 100 μg/ml L-glutamine). One day before collection, cells were induced with 5 mM sodiumbutyrate. Upon 80-90% of confluence, cells were scraped in phosphate buffered saline without Ca^2+ and Mg^2+ and collected by centrifugation at 1500×g for 10 minutes. The cells were homogenised in Tris-HCl 50 mM using an Ultraturrax homogenizer and centrifuged for 10 minutes at 23,500×g. The pellet was washed once by resuspension and rehomogenization and the final pellet was resuspended in Tris-HCl, divided in 1 ml aliquots and stored at −70° C.
(§3) Membranes were thawed and re-homogenized in incubation buffer (glycylglycine 25 mM, pH 8.0). In a total volume of 500 μl, 2-10 μg protein was incubated with [^3H]raulwolscine (NET-722) (New England Nuclear, USA) (1 nM final concentration) with or without competitor for 60 minutes at 25° C. followed by rapid filtration over GF/B filter using a Filtermate196 harvester (Packard, Meriden, Conn.). Filters were rinsed extensively with ice-cold rinsing buffer (Tris-HCl 50 mM pH 7.4). Filter-bound radioactivity was determined by scintillation counting in a Topcount (Packard, Meriden, Conn.) and results were expressed as counts per minute (cpm). Non-specific binding was determined in the presence of 1 μM oxymetazoline for hα2A- and hα2B receptors and 1 μM spiroxatrine for hα2C receptors.
(§4) Data from assays in the presence of compound were calculated as a percentage of total binding measured in the absence of test compound. Inhibition curves, plotting percent of total binding versus the log value of the concentration of the test compound, were automatically generated, and sigmoidal inhibition curves were fitted using non-linear regression. The pIC50 values of test compounds were derived from individual curves.

[2] = target: human adrenergic-α2C receptor (Homo sapiens, UniProt P18825); experiment: Radioligand binding experiment for hα2C-adrenoceptor ([3H]raulwolscine); conditions: [3H]raulwolscine 1 nM, 60 minutes at 25° C.
Description: as §1, §2, §3, §4

5HT-transporter = 5HT-transporter (Homo sapiens, UniProt P31645); experiment: Binding experiment for the 5HT-transporter ([3H]paroxetine, human platelet membranes); conditions: [3H]paroxetine 0.5 nM, 60 min at 25° C.

SMILES | h-α2A pIC50 [1] | h-α2C pIC50 [2] | h-5HTT pIC50 (5HT-transporter) | h-α2A pIC50 ([1]; tested form: 2CF3COOH) | h-α2C pIC50 ([2]; tested form: 2CF3COOH) | h-5HTT pIC50 (5HT-transporter; tested form: 2CF3COOH)
COc1ccc(Cn2c(-c3cccc(CN4CCOCC4)c3)c(Cl)nc(NC3CCN(Cc4ccc5ccccc5c4)CC3)c2=O)cc1 | 6.5 | 6.8 | 6.9 |  |  | 
COc1ccc(Cn2c(-c3cccc(CNCCF)c3)c(Cl)nc(NC3CCN(Cc4ccc5ccccc5c4)CC3)c2=O)cc1 | 6.3 | 6.8 | 7.1 |  |  | 
COc1ccc(Cn2c(-c3ccc(Br)cc3)c(Cl)nc(NC3CCN(Cc4ccc5ccccc5c4)CC3)c2=O)cc1 | 5.9 | 5.7 | 5.7 |  |  | 
CN1CCN(C(=O)NCc2ccc(-n3ccnc(NC4CCN(Cc5ccc6ccccc6c5)CC4)c3=O)cc2)CC1 | 6.8 | 7.8 | 8.3 |  |  | 
CCCOCc1ccc(-n2ccnc(NC3CCN(Cc4ccc5ccccc5c4)CC3)c2=O)cc1 | 6.8 | 8.2 | 7.7 |  |  | 
CCCNCc1ccc(-c2[nH]c(=O)c(NC3CCN(Cc4ccc5ccccc5c4)CC3)nc2Cl)cc1 |  |  |  | 6.3 | 6.8 | 6.6
O=C(CCC(Cn1ccnc(NC2CCN(Cc3cccc4ccccc34)CC2)c1=O)C(=O)c1ccccc1)c1ccccc1 (stereo not drawn) | 5.9 | 6.8 | 7.5 |  |  | 
COc1ccc(Cn2c(-c3cccc(Br)c3)c(Cl)nc(NC3CCN(Cc4ccc5ccccc5c4)CC3)c2=O)cc1 | 5.5 | 5.8 | 6.2 |  |  | 
CCCNCc1ccc(-c2c(Cl)nc(NC3CCN(Cc4ccc5ccccc5c4)CC3)c(=O)n2Cc2ccc(OC)cc2)cc1 | 6.3 | 6.6 | 6.9 |  |  | 
